{"source": "patent US8501715B2", "about": "“Oxidized lipids and uses thereof in the treatment of inflammatory diseases and disorders” (Vascular Biogenics Ltd., priority 2003, dated 2013)", "system": "LDL-RD mice", "assay": "Atheromatous plaque area in the aortic sinus of LDL-RD mice", "type": "in vivo, mouse", "conditions": "albumin control, oral 100 μg/dose 5 times every other day, Western diet; 6.5 weeks after first administration", "from_the_text": "LDL-RD mice: LDL-RD Mice [LDLr<m1Her>LDL−/−(C57B/6 50% JSL 25% I129 25%)], 8-12 weeks old, were supplied by the Hadassah Hospital Animal Facility (Hadassah Hospital, Israel).\nAssessment of Atherosclerosis: Quantification of atherosclerotic fatty streak lesions was done by calculating the lesion size in the aortic sinus as previously described (Paigen et al. Quantitative assessment of atherosclerotic lesions in mice. Atherosclerosis 1987; 68: […]) and by calculating the lesion size in the aorta. Briefly, after perfusion with saline Tris EDTA, the heart and the aorta were removed from the animals and the peripheral fat cleaned carefully. The upper section of the heart was embedded in OCT medium (10.24% w/w polyvinyl alcohol; 4.26% w/w polyethylene glycol; 85.50 w/w nonreactive ingredients) and frozen. […] Sections were evaluated for fatty streak lesions after staining with oil-red O. Lesion areas per section were scored on a grid (Rubin et al. Inhibition of early atherogenesis in transgenic mice by human apoplipoprotein A-I. Nature 1991; 353: 265-267) by an observer counting unidentified, numbered specimens. […]\nPlasma Measurements and Quantification of Atherosclerotic Lesions: Plasma total cholesterol and total triglyceride levels were measured by COBAS MIRA. […] Atherosclerotic lesion area was evaluated by computer analysis (Image Pro Plus) and supported by microscope evaluation as well. […]", "data": [{"substance": "Human Serum albumin: human serum albumin, control protein, 100 μg/dose", "values": [{"measurement": "Aortic Sinus Lesion", "value": "77,604 ± 5,039 μm^2"}]}]}
